How the values were obtained:
PERK and ATF6 = assay: Expression of downstream effectors of PERK and ATF6 (Chop, Herpud1 mRNA); conditions: for impact on the other UPR branches: other UPR branches (PERK, ATF6)
Experimental: Quantitative real-time PCR—Total RNA was prepared using TRIzol reagent (Invitrogen, Carlsbad, CA, USA). All RNAs were reverse-transcribed with Maxima Reverse Transcriptase (Thermo Scientific, Waltham, MA, USA), according to manufacturer protocol. qPCR was performed via a StepOnePlus™ Real-Time PCR Systems from Applied Biosystems and the SYBR Green PCR Core reagents kit (Takara). Analysis was carried out using QuantStudio™ Design and Analysis software version 1.3.1. Three technical repeats were performed per experiment and at least three biological repeats were performed per point per experiment. Each sample was extract individually for RNA and performed the quantification of mRNA levels by qPCR for several targets.
The effect of compounds 28 (Z4P) and 33 (Z4) on RIDD was then tested by interrogating the levels of the known RIDD target Sparc mRNA (46) in U87 cells upon treatment with the transcriptional blocker actinomycin D and the ER stressor tunicamycin. Both compound 33 (Z4) and 28 (Z4P) blocked tunicamycin-induced degradation of Sparc mRNA compared to control treatment (FIG. 2C) whilst had no effect on Sparc mRNA in cells overexpressing a dominant negative (DN) form of IRE1 (data not shown). The specificity of these compounds in the context of the other arms of the UPR, PERK in particular, was then investigated. This was done to ensure that the stress responses related to compounds 28 (Z4P) and 33 (Z4) were wholly due to their action on IRE1 rather than other UPR transducers. The expression of downstream effectors of PERK and ATF6 was evaluated. […] This was also confirmed at the level of eIF2α phosphorylation and ATF4 protein expression which were not altered upon exposure to compound 33 (Z4) (data not shown). […] Consequently, to further document the characteristics of compound 33 (Z4) at the protein level, U251 (commonly available GB cell line) and RADH87 (G. Auf et al., Proc Natl Acad Sci USA, 2010, 107, 15553-15558) (human tumor-derived primary GB cell line) cells were treated and their proteome were evaluated. Treatment of U251 and RADH87 cells with compound 33 (Z4) impacted on particular pathways such as cell adhesion, circulatory system development, cell locomotion and cell migration; all properties involved in tumor establishment (e.g. angiogenesis) and tumor invasion (e.g. metastasis) (data not shown). The proteomes of these GB lines exposed to compound 33 (Z4) was then functionally compared to those of the same cell lines in which IRE1 activity was invalidated genetically either using a dominant negative construct reported previously (B. Drogat, et al., Cancer Res., 2007, 67, 6700-6707) or a truncated mutant variant of IRE1 lacking an RNase domain (Q780stop) (S. Lhomond, et al., EMBO Molecular Medicine, 2018, 10, e7929) (data not shown). […] Proteome alterations upon compound 33 (Z4) exposure phenocopied those observed in cells in which IRE1 activity was genetically blunted, thus reinforcing the selectivity of compound 33 (Z4) towards IRE1 (data not shown). Having extensively documented the effect and specificity of Z4-compounds on IRE1, it was then tested whether compounds 28 (Z4P), 33 (Z4), 34 (Z4A), 35 (Z4B), 36 (Z4C), 37 (Z4D) and 38 (Z4E) could sensitize GB cells to the standard of care chemotherapy, TMZ. Cell viability assays were carried out on U87 cells treated with sub-toxic doses of compound 33 (Z4) and compound 28 (Z4P) (data not shown) and escalating doses of TMZ.

Sparc mRNA = assay: RIDD: Sparc mRNA decay in U87 cells; conditions: for effect on Sparc mRNA in cells overexpressing dominant negative IRE1: DN IRE1 cells, data not shown; for tunicamycin-induced degradation of Sparc mRNA: U87 cells, actinomycin D and tunicamycin, 4 hours (FIG. 2C)
Experimental: FIG. 2: Compound 33 (Z4) and compound 28 (Z4P) inhibit IRE1 activity in cellular models. (A) Protein levels of IRE1 and phospho-IRE1 in U87 cells treated with compound 33 (Z4) and compound 28 (Z4P) over 24 hours. Fold change of protein expression between IRE1 and phospho-IRE1 is represented in bar chart form normalized to untreated U87 cells. (B) Quantification of XBP1s mRNA levels upon treatment with 1 μg/mL Tunicamycin over 24 hrs in the presence or absence of pre-treatments with 25 μM compound 33 (Z4) or compound 28 (Z4P) normalized to untreated U87 cells. (C) Quantification of SPARC mRNA levels in the presence of 5 μg/mL Actinomycin D and presence or absence of 10 μg/mL Tunicamycin and 9 μg/mL compound 33 (Z4) or compound 28 (Z4P) over 4 hours in U87 cells. (D) Cell viability of U87 cells as function of TMZ concentration, in the presence of increasing concentrations of compound 33 (Z4) and compound 28 (Z4P). The non-linear regression was calculated using the GraphPad Prism software. Symbols and error bars represent mean values±SD.
Cell culture and treatments—U87MG (U87; ATCC) cells were authenticated as recommended by AACR (http://aacrjoumals.org/content/cell-line-authentication-information) and regularly tested for the absence of mycoplasma using MycoAlert® (Lonza, Basel, Switzerland) or MycoFluor (Invitrogen, Carlsbad, CA, USA). U87 were grown in DMEM Glutamax (Invitrogen, Carlsbad, CA, USA) supplemented with 10% FBS. GB immortalized U251 and primary RADH87 (T. Avril et al., Brain Pathol., 2012, 22, 159-174) cells were grown in DMEM supplemented with 10% FBS in a 5% C02 humidified atmosphere at 37 °C. GB cell lines were modified for IRE1 activity by overexpressing dominant negative (DN) forms of IRE1 that lack the RNase domain (IRE1.NCK or IRE1 Q780stop) as previously described (S. Lhomond et al., EMBO Molecular Medicine, 2018, 10, e7929; J. Obacz et al., bioRxiv, 2020, 533018). For XBP1s induction experiments, tunicamycin was used at 1 μg/mL for the indicated periods of time. For inhibitor cell toxicity assays cells were plated in 96 well plates at 5000 cells per well and treated with 0, 5, 10, 25, 50, 100, 250, 500, 1000 and 2500 μM concentrations of each inhibitor. After 6 days of incubation, WST1 reagent (Roche) was added to each well and post 2-hour incubation the plate was read using a Tecan 200 colorimeter. […] After 6 days of incubation, WST1 reagent (Roche) was added to each well and post 2-hour incubation the plate was read using a Tecan 200 colorimeter.
Quantitative real-time PCR—Total RNA was prepared using TRIzol reagent (Invitrogen, Carlsbad, CA, USA). […] Each sample was extract individually for RNA and performed the quantification of mRNA levels by qPCR for several targets. […]

## CCNC(=O)c1ccc(C)c(NC(=O)NC(C)CCc2ccc(O)cc2)c1 (stereo not shown)
PERK and ATF6
  impact on the other UPR branches: did not significantly impact the other UPR branches

## CC(CCc1ccc(O)cc1)NC(=O)C(=O)Nc1cc(C(N)=O)ccc1F (stereo not shown)
PERK and ATF6
  impact on the other UPR branches: did not significantly impact the other UPR branches

## Cc1ccc(C(N)=O)cc1NC(=O)NC(C)CCc1ccc(O)cc1 (racemic)
Sparc mRNA
  effect on Sparc mRNA in cells overexpressing dominant negative IRE1: no effect on Sparc mRNA
  tunicamycin-induced degradation of Sparc mRNA: blocked tunicamycin-induced degradation of Sparc mRNA
PERK and ATF6; data not shown
  Chop mRNA: Neither Chop nor Herpud1 mRNA were significantly affected
  Herpud1 mRNA: Neither Chop nor Herpud1 mRNA were significantly affected
PERK and ATF6
  impact on the other UPR branches: did not significantly impact the other UPR branches

## Cc1ccc(C(=O)NC2CC2)cc1NC(=O)NC(C)CCc1ccc(O)cc1 (stereo not shown)
PERK and ATF6
  impact on the other UPR branches: did not significantly impact the other UPR branches

## CNC(=O)c1ccc(C)c(NC(=O)NC(C)CCc2ccc(O)cc2)c1 (stereo not shown)
PERK and ATF6
  impact on the other UPR branches: did not significantly impact the other UPR branches

## CC(CCc1ccc(O)cc1)NC(=O)Nc1cc(C(N)=O)ccc1F (stereo not shown)
PERK and ATF6
  impact on the other UPR branches: did not significantly impact the other UPR branches

## Cc1ccc(C)c(NC(=O)NC(C)CCc2ccc(O)cc2)c1 (racemic)
Sparc mRNA
  effect on Sparc mRNA in cells overexpressing dominant negative IRE1: no effect on Sparc mRNA
  tunicamycin-induced degradation of Sparc mRNA: blocked tunicamycin-induced degradation of Sparc mRNA
PERK and ATF6
  impact on the other UPR branches: did not significantly impact the other UPR branches

Source: patent publication US20260382588A1, “COMPOUNDS CONTAINING A HYDROXYPHENYL MOIETY AND THEIR USE” (published 2026)
